# According to US11634412B2, “3-phosphoglycerate dehydrogenase inhibitors and uses thereof” (Raze Therapeutics, Inc., priority 2016, dated 2023):
# Chains of the proteins cited; added tags and fusions are not shown.
# UniProt O43175, whole entry: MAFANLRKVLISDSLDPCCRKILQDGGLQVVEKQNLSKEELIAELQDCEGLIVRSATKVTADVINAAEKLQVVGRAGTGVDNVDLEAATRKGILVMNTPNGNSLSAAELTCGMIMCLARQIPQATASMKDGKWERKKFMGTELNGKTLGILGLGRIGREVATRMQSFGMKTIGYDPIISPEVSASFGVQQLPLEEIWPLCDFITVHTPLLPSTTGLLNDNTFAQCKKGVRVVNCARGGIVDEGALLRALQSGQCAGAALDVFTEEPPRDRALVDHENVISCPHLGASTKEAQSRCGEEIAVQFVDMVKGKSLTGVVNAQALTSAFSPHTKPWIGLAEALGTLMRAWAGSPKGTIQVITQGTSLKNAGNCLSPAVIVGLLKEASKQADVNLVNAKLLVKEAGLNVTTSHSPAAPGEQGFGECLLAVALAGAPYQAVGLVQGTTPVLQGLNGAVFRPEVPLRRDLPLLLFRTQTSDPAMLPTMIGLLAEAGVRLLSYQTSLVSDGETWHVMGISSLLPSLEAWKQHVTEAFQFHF
# Legend:
# [1] = molecular target: T1, Full length (FL) 3-Phosphoglycerate Dehydrogenase (PHGDH) (Homo sapiens, UniProt O43175); test: Full length (FL) PHGDH Diaphorase coupled assay (500 uM NAD); conditions: read-out: FL Diaphorase 500 μM NAD, full-length PHGDH 5 nM, 30° C. 60 minutes, resorufin fluorescence
# [2] = molecular target: T1, Full length (FL) 3-Phosphoglycerate Dehydrogenase (PHGDH); test: Full length (FL) PHGDH Diaphorase coupled assay (20 uM NAD); conditions: read-out: FL Diaphorase 20 μM NAD, full-length PHGDH 10 nM, 30° C. 60 minutes, resorufin fluorescence
IC50 [1] [nM],IC50 [2] [nM],Structure (SMILES)
1000 to 5000,–,Cn1c(C(=O)NC2(c3ccc(C(=O)O)cc3)CCOC2)cc2c(Cl)c(Cl)c(OCC(O)CN)cc21 (stereo not shown)
1000 to 5000,–,Cn1c(C(=O)NC2(c3ccc(C(=O)O)cc3)CCOCC2)cc2c(Cl)c(Cl)ccc21
1 to 1000,–,CC(=O)NS(=O)(=O)c1ccc(C2(NC(=O)c3cc4c(Cl)c(Cl)ccc4n3C)COC2)cc1

# Continued, compound first:
Structure (SMILES),IC50 [1] [nM],IC50 [2] [nM]
"COc1ccc2c(cc(C(=O)NC3(c4ccc(C(C(=O)O)C(C)C)cc4)COC3)n2C)c1Cl (single isomer, unassigned)",1 to 1000,–
"COc1ccc2c(cc(C(=O)NC3(c4ccc(C(C(=O)O)C5CCCC5)cc4)COC3)n2C)c1Cl (single isomer, unassigned)",1 to 1000,–
CC(=O)NS(=O)(=O)N1CCC(NC(=O)c2cc3c(Cl)c(Cl)ccc3n2C)(c2ccccc2)CC1,–,5000 to 10000
COc1ccc2c(cc(C(=O)NC3(c4ccc(C(C(=O)O)C5CCOCC5)cc4)COC3)n2C)c1Cl (stereo not shown),1 to 1000,–
